Experimental data reported in patent US20140088192A1, “SUBCUTANEOUSLY INFUSIBLE LEVODOPA PRODRUG COMPOSITIONS AND METHODS OF INFUSION” (SynAgile Corporation, priority 2010, published 2014).

Tests used:
[1] = Hydrolysis of LDEE salts to LD in aqueous solution, monitored by HPLC; assay type: physicochemical; settings: about 2.5 M, acetate buffered pH 4.60, 72 hours at about 23±2° C.
[2] = Estimated / projected shelf life and operational life (time to LD saturation)

CCOC(=O)[C@@H](N)Cc1ccc(O)c(O)c1.Cl [LDEE.HCl, LDEE Hydrochloride]
% of the LDEE.HCl hydrolyzed to LD [1]: about 2.4%
projected shelf life ([2]; 2.7 M, pH 2.3, ambient temperature): about 128 days
expected time to saturation in LD ([2]; about 2.5 M, pH 2.3, storage at 4° C.): about 244 weeks
